From patent US20250295642A1, “FLUOROQUINOXALINONE DERIVATIVE FOR SELECTIVELY INHIBITING PARP1” (MEDSHINE DISCOVERY INC., priority 2022, published 2025)

Legend:
DLD1 (BRCA2 KO) cells = test: Anti-proliferation assay on DLD1 cells (BRCA2 KO); assay type: cell-based; conditions: read-out: IC50, anti-proliferation on DLD1 (BRCA2 KO) cells, incubated for 7 days, chemiluminescent cell viability
[1] = In vivo pharmacokinetic evaluation in mice; conditions: for C0 / Cmax: compound 16 salt female BALB/C, compound 15 salt male CD-1, tested form: TFA salt; for AUC0-last / Cl / T1/2 / Tlast / Vdss / Tmax: tested form: TFA salt
[2] = In vitro liver microsomal stability, human liver microsomes; conditions: 1 μM, 0.5 mg/mL, NADPH, up to 60 minutes, tested form: TFA salt
[3] = In vitro liver microsomal stability, mouse liver microsomes; conditions: tested form: TFA salt
[4] = system: MDA-MB-436 cells (BRCA1 mutation); test: Anti-proliferation assay on MDA-MB-436 cells (BRCA1 mutation); conditions: read-out: IC50, proliferation inhibition on MDA-MB-436 cells (BRCA1 mutation), incubated for 7 days, chemiluminescent cell viability
[5] = Brain penetration evaluation in mice; conditions: PO 10 mg/kg, 2-hour time point, tested form: TFA salt
MDR1-MDCK II cell line = test: Permeability evaluation on MDR1-MDCK II cell line; assay type: in vitro ADME
[6] = Pharmacokinetic evaluation in rats; conditions: male SD rats, tested form: TFA salt
[7] = Brain penetration evaluation in rats; conditions: PO 5 mg/kg, 2-hour time point, tested form: TFA salt
[8] = system: human breast cancer MDA-MB-436 cell subcutaneous xenograft tumor; test: In vivo pharmacodynamic study, MDA-MB-436 subcutaneous xenograft tumor model; conditions: 1.0 mg/kg p.o. once daily, tested form: TFA salt
[9] = 2.00 μM, 150 minutes, pH 7.40, tested form: TFA salt

CNC(=O)c1ccc2c(n1)CC[C@H]1CN(Cc3cc(F)c4nc(C)c(=O)[nH]c4c3F)CCN21
IC50 (DLD1 (BRCA2 KO) cells): 10 nM

CNC(=O)c1ccc2c(n1)CC[C@H]1CN(Cc3ccc4nc(C)c(=O)[nH]c4c3F)CCN21
C0 ([1]; IV 2 mg/kg): 14 µM
AUC0-last ([1]; IV 2 mg/kg): 17.915 µM·h
Cl ([1]; IV 2 mg/kg): 4.0 mL/min/kg
T1/2 ([1]; IV 2 mg/kg): 0.25 h
Tlast ([1]; IV 2 mg/kg): 24.0 h
Vdss ([1]; IV 2 mg/kg): 1.54 L/kg
Cmax ([1]; PO 10 mg/kg): 42.7 µM
AUC0-last ([1]; PO 10 mg/kg): 173.382 µM·h
T1/2 ([1]; PO 10 mg/kg): 2 h
Tlast ([1]; PO 10 mg/kg): 24.0 h
Tmax ([1]; PO 10 mg/kg): 30 min

CNC(=O)c1ccc2c(n1)OC[C@H]1CN(Cc3ccc4nc(C)c(=O)[nH]c4c3F)CCN21
CLint(liver) [2]: <8.6 mL/min/kg
CLint(liver) [3]: <38 mL/min/kg

[2H]C([2H])([2H])NC(=O)c1ccc(N2CCN(Cc3ccc4c([nH]c(=O)c5cccnc54)c3F)CC2)c(Cl)n1
IC50 [4]: 0.36 nM

CNC(=O)c1ccc(N2CCN(Cc3ccc4c([nH]c(=O)c5cccnc54)c3F)CC2)c(F)n1 [Compound 15]
IC50 ([4]; tested form: TFA salt): 1.58 nM
IC50 (DLD1 (BRCA2 KO) cells; tested form: TFA salt): 1.71 nM
C0 ([1]; IV 2 mg/kg): 4.21 µM
AUC0-last ([1]; IV 2 mg/kg): 9.23 µM·h
Cl ([1]; IV 2 mg/kg): 7.7 mL/min/kg
T1/2 ([1]; IV 2 mg/kg): 3.7 h
Tlast ([1]; IV 2 mg/kg): 24.0 h
Vdss ([1]; IV 2 mg/kg): 2.1 L/kg
Cmax ([1]; PO 10 mg/kg): 13.7 µM
AUC0-last ([1]; PO 10 mg/kg): 61.6 µM·h
T1/2 ([1]; PO 10 mg/kg): 4.1 h
Tlast ([1]; PO 10 mg/kg): 24.0 h
Tmax ([1]; PO 10 mg/kg): 15 min
Brain-to-plasma drug concentration ratio [5]: 0.7
C2 h Brain drug concentration [5]: 5.814 µM
C2 h Plasma drug concentration [5]: 8.467 µM
Permeability Papp A to B (MDR1-MDCK II cell line; [9]): 25.2 10^−6 cm/s
Permeability Papp B to A (MDR1-MDCK II cell line; [9]): 17.7 10^−6 cm/s
Efflux ratio (MDR1-MDCK II cell line; 2.00 μM, tested form: TFA salt): 0.703
Permeability conclusion (MDR1-MDCK II cell line; tested form: TFA salt): High
AUC0-last ([6]; IV 1 mg/kg): 5.82 µM·h
C0 ([6]; IV 1 mg/kg): 2120 nM
Cl ([6]; IV 1 mg/kg): 6.0 mL/min/kg
T1/2 ([6]; IV 1 mg/kg): 5.2 h
Tlast ([6]; IV 1 mg/kg): 24.0 h
Vdss ([6]; IV 1 mg/kg): 2.1 L/kg
F (bioavailability) ([6]; PO 5 mg/kg, calculated using AUC0-last): 78%
AUC0-last ([6]; PO 5 mg/kg): 22.9 µM·h
Cmax ([6]; PO 5 mg/kg): 2830 nM
T1/2 ([6]; PO 5 mg/kg): 3.3 h
Tlast ([6]; PO 5 mg/kg): 24.0 h
Tmax ([6]; PO 5 mg/kg): 4 h
Brain-to-plasma drug concentration ratio [7]: 0.7
C2 h Brain drug concentration [7]: 5.814 µM
C2 h Plasma drug concentration [7]: 8.467 µM
T/C (relative tumor proliferation rate) D24 [8]: 14%
TGI (tumor growth inhibition rate) D24 [8]: 104%

Like-named read-outs stand apart in the source and are kept apart here.
